# How the values were obtained:
# Sequences of proteins named here, by UniProt entry; tags and fusion partners are left off.
# UniProt P03372, whole entry: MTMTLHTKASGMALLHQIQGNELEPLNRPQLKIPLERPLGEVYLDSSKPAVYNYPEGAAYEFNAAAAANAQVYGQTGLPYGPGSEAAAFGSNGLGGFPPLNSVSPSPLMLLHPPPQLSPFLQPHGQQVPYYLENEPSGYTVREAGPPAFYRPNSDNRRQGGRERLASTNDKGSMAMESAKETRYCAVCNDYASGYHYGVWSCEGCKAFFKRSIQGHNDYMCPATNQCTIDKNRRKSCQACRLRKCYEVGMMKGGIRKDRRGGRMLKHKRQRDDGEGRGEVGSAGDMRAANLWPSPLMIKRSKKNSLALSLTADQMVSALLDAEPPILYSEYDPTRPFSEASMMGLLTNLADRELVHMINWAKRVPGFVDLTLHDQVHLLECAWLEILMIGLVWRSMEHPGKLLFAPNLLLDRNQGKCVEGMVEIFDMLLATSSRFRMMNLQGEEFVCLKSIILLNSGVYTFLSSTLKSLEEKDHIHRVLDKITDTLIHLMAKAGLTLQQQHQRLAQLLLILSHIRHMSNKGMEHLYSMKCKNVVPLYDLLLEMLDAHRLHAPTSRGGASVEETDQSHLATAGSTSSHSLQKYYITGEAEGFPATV
# UniProt Q92731, whole entry: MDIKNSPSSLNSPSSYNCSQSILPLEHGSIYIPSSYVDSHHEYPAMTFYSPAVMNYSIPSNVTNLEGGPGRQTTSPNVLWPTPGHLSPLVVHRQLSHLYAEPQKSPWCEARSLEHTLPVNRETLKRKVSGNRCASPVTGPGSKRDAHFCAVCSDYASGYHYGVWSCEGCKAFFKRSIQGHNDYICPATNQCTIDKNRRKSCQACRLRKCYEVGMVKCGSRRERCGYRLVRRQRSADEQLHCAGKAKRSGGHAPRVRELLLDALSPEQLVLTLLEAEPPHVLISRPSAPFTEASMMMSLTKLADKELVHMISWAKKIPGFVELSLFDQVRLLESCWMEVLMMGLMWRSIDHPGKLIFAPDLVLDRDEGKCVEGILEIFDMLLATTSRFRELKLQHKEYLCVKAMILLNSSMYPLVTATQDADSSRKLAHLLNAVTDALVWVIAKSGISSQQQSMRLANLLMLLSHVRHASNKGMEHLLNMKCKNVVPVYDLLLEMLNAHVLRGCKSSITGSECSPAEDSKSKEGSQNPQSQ
# UniProt Q99527, whole entry: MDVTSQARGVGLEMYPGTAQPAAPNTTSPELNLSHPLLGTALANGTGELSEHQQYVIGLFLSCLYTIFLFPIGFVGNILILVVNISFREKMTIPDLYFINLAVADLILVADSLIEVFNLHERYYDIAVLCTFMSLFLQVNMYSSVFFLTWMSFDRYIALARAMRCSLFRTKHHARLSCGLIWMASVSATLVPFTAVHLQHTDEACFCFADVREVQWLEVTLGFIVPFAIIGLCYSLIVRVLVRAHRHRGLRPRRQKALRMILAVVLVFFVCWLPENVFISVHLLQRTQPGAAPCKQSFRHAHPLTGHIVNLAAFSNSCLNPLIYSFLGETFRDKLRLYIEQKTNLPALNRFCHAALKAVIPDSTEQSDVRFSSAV
# ERα = ERα (Homo sapiens, UniProt P03372); assay: ERα PolarScreen fluorescence polarization competitor assay; details: any tested concentration
# ERβ = ERβ (Homo sapiens, UniProt Q92731); assay: ERβ PolarScreen fluorescence polarization competitor assay; details: 10 μM
# [1] = cited from earlier work
# GPER = GPER (Homo sapiens, UniProt Q99527); assay: cAMP HTRF antagonism assay (G-1 induced inhibition of adenylate cyclase) in HL-60 cells
Compound,ERα binding (ERα),ERβ binding (ERβ),solubility [1],Antagonism of G-1 induced inhibition of adenylate cyclase (GPER; 100 nM),Antagonism of G-1 induced inhibition of adenylate cyclase (GPER; 1 μM exposure)
CC(=O)c1ccc2c(c1)C1C=CCC1C(c1cc3c(cc1Br)OCO3)N2 (centres unmarked),no appreciable binding,exhibited binding,–,–,–
Brc1cc2c(cc1C1Nc3ccccc3C3C=CCC31)OCO2 (centres unmarked),–,–,limited solubility,–,–
CC(C)c1ccc2c(c1)C1C=CCC1C(c1cc3c(cc1Br)OCO3)N2 (centres unmarked),no appreciable binding,exhibited binding,limited solubility,"also observed, less so",caused a decrease in adenylate cyclase inhibition

# Source: patent US11634378B2, “Compounds and methods targeting GPER in calcium disorders” (Saint Louis University, priority 2017, dated 2023)
